Assay results taken from patent US9782415B2, “Substituted pyrazolo[1,5-a]pyrimidine compounds as Trk kinase inhibitors” (Array BioPharma, Inc., priority 2009, dated 2017).

Protein sequences, listed by entry. Tags and fused reporters are not part of them. Residues count along the entry.
UniProt P04629, 440-796: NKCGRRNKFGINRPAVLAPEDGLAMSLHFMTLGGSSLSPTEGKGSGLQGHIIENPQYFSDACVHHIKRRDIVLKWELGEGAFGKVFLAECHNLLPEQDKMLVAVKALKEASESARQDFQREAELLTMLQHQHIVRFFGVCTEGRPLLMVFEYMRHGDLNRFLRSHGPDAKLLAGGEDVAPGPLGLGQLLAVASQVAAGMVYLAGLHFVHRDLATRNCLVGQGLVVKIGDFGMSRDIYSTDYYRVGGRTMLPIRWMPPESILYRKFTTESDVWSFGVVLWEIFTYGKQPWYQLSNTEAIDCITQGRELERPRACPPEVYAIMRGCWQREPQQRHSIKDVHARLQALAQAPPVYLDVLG

Target: histidine-tagged recombinant human TrkA, cytoplasmic domain (Homo sapiens (Human), UniProt P04629)
Assay: TrkA ELISA Assay
Type: biochemical
Details: Table 2
Method: An enzyme-linked immunosorbant assay (ELISA) was used to assess TrkA kinase activity in the presence of inhibitors. […] The assay buffer consisted of 25 mM MOPS pH 7.5, 0.005% (v/v) Triton X-100 and 5 mM MgCl2. The reaction mixture was removed from the plate by washing with PBS containing 0.1% (v/v) Tween 20. […] After the addition of 1M phosphoric acid, the chromogenic substrate color intensity was quantitated via absorbance at 450 nm.

- IC50: 4.6 nM
Structure (SMILES): Cc1ncc(F)cc1[C@H]1CCCN1c1ccn2ncc(C(=O)N[C@H]3CC[C@H](O)CC3)c2n1 [Example 194, 5-((R)-2-(5-fluoro-2-methylpyridin-3-yl)pyrrolidin-1-yl)-N-((trans)-4-hydroxycyclohexyl)pyrazolo[1,5-a]pyrimidine-3-carboxamide]
